# Laboratory results published in US7318917B2, “Rapid assays for neurotransmitter transporters” (Vanderbilt University, priority 2002, dated 2008).
# The chains behind the UniProt entries cited, without tags or fusion partners.
# UniProt Q01959, whole entry: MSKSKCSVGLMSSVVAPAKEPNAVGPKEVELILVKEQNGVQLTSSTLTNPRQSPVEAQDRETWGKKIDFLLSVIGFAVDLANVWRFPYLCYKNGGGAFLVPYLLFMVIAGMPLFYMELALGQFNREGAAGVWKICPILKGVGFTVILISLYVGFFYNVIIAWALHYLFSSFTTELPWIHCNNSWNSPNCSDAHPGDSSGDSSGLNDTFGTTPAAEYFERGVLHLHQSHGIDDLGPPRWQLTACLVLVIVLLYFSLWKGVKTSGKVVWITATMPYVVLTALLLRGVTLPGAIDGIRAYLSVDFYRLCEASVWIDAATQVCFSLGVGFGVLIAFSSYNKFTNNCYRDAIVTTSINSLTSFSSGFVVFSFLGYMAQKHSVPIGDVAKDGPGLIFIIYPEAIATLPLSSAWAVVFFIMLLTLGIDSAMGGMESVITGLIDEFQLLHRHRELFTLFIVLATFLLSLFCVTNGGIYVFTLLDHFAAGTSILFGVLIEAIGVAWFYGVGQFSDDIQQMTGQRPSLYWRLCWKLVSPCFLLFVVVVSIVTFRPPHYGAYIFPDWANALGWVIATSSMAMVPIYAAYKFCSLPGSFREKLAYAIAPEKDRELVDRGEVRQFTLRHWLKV
# Target: DAT (Homo sapiens, UniProt Q01959)
# Assay: ASP+ uptake assay on FLEXstation, DAT-transfected HEK-293 cells
# Assay type: cell-based
# Set-up: expressed in transfected cells
# Conditions: FIG. 11B
# Description: HEK-293 cells (American Type Culture Collection, Manassas, Va.) and HEK-293 cells stably transfected with SERT, NET, or DAT (Qian et al, 1997) were maintained in monolayer culture at 37° C., 5% CO2 in Dulbecco's modified Eagle's medium (DMEM) containing 10% fetal bovine serum, 2 mM glutamine, 100 units/ml penicillin, and 100 μg/ml streptomycin. Medium for the transfected lines was supplemented with G418 (250 μg/ml). Trypsin, glutamine, penicillin, streptomycin, G418, and phosphate-free DMEM were purchased from Life Technologies, Inc. or obtained from the Vanderbilt Media Core. For all transport assays, cells were plated on poly-D-lysine (0.1 mg/ml)-coated (0.1 mg/ml)-coated 96-well plates. […]
# To limit the time delay between the addition of ASP^+ and the measurement of accumulation of ASP^+ during the kinetic assays, plates were divided in half and assayed one half at a time. […] After incubation, ASP^+ was added to the first 6 columns in 20 μL aliquots at indicated concentrations and accumulated fluorescence measured and recorded over time by the FLEXStation ultilizing SoftMax Pro Software. Then, ASP^+ was added to the last 6 columns and fluorescence accumulation measured and recorded. […]
# Endpoint assays were conducted to evaluate the sensitivity of ASP^+ uptake to transporter antagonists. […] ASP^+ accumulation was measured after 10 minutes. […]
smiles,measurement,value
c1ccc(CCCN2CCN(CCOC(c3ccccc3)c3ccccc3)CC2)cc1 [GBR-12935],effect of antagonist on ASP+ accumulation by DAT,blocked
